Values of other authors, collected in patent US6696077B2, “Silver alginate foam compositions” (priority 2001, dated 2004).

Conditions: Ag2O; printed with superscript 20

## silver oxide
  solubility in aqueous solutions: 0.0013 parts per hundred
